From patent US4511550A, “1-(p-Substituted or unsubstituted aminoalkyl)phenylpropane-1,2-dione bis(thiosemicarbazone) derivatives, and their production and use” (Nihon Medi-Physics Co., Ltd., priority 1982, dated 1985)

Legend:
[1] = Variation of blood level in rats after intravenous administration; type: in vivo, rats of SD strain; details: female SD rats, i.v.
[2] = background art; cited from earlier work

| Substance | Blood level (% of dose/g; in average) ([1]; 0.5 hours) | Blood level (% of dose/g; in average) ([1]; 3 hours) | Stability after administration into living bodies [2] |
| --- | --- | --- | --- |
| Conventional ^99m Tc-labeled, human serum albumin (Commercial product B): Conventional ^99m Tc-labeled, human serum albumin (Commercial product B) | 3.15 %/g | 1.88 %/g |  |
| ^99m Tc-labeled serum albumin: human serum albumin treated with ^99m Tc pertechnetate in the presence of a reducing agent |  |  | low in the stability after administration into living bodies |
